Values quoted from earlier work in patent US20110201620A1, “2-(3-AMINOARYL) AMINO-4-ARYL-THIAZOLES AND THEIR USE AS C-KIT INHIBITORS” (AB SCIENCE, priority 2002, published 2011).

Protein sequences, listed by entry. Tags and fused reporters are not part of them. Residues count along the entry.
UniProt P16234, 24-1089: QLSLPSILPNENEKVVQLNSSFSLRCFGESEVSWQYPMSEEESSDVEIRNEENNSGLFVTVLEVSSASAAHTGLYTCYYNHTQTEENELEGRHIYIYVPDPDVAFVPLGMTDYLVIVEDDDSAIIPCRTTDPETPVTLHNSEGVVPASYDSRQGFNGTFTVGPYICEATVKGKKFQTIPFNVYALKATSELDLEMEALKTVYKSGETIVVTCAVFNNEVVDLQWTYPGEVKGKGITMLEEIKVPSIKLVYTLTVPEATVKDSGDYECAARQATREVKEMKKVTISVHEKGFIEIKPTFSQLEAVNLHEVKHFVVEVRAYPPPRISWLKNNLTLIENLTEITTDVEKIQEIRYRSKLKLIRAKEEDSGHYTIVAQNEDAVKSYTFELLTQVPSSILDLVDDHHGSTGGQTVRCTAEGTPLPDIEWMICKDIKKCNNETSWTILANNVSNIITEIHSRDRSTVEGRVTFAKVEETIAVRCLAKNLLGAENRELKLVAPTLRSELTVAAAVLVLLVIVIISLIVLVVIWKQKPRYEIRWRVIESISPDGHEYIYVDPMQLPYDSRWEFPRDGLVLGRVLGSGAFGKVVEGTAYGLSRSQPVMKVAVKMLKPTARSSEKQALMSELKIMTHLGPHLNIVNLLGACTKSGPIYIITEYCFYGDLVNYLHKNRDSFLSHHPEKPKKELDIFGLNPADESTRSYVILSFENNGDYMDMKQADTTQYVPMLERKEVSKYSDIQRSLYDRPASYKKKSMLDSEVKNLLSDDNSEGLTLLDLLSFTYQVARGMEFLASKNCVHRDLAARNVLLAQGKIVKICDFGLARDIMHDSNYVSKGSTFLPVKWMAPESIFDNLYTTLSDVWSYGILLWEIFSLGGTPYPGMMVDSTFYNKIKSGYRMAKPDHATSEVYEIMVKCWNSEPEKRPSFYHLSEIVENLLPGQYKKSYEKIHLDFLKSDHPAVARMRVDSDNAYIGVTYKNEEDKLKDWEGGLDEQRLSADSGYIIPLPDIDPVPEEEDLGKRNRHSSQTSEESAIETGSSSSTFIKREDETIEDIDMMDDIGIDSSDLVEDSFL

Target: PDGFRA (Homo sapiens, UniProt P16234)
Conditions: read-out: Cell proliferation assay (IC50) PDGFRA; cited from earlier work

## Cc1ccc(NC(=O)c2ccc(CN3CCN(C)CC3)cc2)cc1Nc1nc(-c2cccnc2)cs1 [Compound 066, 4-(4-methyl-piperazin-1-ylmethyl)-N-[4-methyl-3-(4-pyridin-3-yl-thiazol-2-ylamino)-phenyl]-benzamide]
  IC50: 250 nM
